Where two headings read alike, the source gives them in different places.

Amino acid sequences for entries named in this document (tags omitted). A change or cut given only in a name is not applied to a line headed by its entry.
UniProt P20618: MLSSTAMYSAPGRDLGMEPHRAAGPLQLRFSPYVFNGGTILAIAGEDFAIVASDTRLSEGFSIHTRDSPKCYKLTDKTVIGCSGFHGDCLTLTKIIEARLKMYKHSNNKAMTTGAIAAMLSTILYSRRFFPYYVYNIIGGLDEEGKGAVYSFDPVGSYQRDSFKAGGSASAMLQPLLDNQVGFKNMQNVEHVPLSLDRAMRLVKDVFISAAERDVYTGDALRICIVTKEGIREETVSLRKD
UniProt P28074: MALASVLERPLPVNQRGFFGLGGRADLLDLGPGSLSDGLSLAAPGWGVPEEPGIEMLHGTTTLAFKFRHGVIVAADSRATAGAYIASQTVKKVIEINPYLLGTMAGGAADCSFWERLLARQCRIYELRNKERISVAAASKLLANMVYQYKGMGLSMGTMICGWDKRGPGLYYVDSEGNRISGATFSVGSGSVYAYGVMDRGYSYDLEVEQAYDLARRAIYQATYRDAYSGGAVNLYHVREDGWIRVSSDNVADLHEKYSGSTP
UniProt A0A5K1K7U1, entry or part of it: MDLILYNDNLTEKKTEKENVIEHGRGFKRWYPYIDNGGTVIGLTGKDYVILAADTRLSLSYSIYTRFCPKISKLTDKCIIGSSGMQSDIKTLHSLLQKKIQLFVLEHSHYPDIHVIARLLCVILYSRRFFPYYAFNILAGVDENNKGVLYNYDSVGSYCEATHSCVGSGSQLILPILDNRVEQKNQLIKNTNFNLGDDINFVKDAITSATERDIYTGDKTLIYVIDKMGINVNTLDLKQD
UniProt Q8IJT1, entry or part of it: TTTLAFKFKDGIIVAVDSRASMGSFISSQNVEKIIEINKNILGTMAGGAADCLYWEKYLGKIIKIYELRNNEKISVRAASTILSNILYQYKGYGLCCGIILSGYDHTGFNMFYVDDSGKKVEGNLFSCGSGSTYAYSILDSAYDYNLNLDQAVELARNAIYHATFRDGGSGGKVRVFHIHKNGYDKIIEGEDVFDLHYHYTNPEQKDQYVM
UniProt P28062: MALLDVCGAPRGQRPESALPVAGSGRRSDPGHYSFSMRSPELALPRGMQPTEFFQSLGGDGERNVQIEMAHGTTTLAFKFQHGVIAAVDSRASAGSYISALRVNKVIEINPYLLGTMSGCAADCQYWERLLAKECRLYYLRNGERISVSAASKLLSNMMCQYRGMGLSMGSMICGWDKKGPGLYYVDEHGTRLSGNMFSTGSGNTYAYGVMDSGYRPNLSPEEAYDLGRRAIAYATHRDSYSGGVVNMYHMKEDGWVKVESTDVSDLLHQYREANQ

We go through two molecules from patent US11357817B2, “Immunoproteasome inhibitor” (The Regents of the University of California, priority 2017, dated 2022).

In one assay the test system is P. falciparum Dd2. Nature of the assay: P. falciparum Dd2 asexual blood stage SYBR Green I compound sensitivity assay. Type of assay: cell-based, Plasmodium falciparum. The settings on record: for Selectivity Index: P. falciparum activity versus HepG2 activity; for increase in selectivity (index) compared to carmaphycin B: P. falciparum versus HepG2. On the procedure: P. falciparum Dd2 strain parasites were cultured under standard conditions (31), using RPMI media supplemented with 0.05 mg/ml gentamycin, 0.014 mg/mL hypoxanthine (prepared fresh), 38.4 mM HEPES, 0.2% Sodium Bicarbonate, 3.4 mM Sodium Hydroxide, 0.05% O+ Human Serum (Denatured at […] for 40 min and From Interstate Blood Bank, Memphis, Tenn.) and 0.0025% Albumax). Human O+ whole blood was obtained from TSRI blood bank (La Jolla, Calif.). Leukocyte-free erythrocytes are stored at 50% hematocrit in RPMI-1640 screening media (as above, but without O+ human serum and with 2× albumax concentration) at 4° C. for one to three weeks before experimental use. Cultures were monitored every one to two days via Giemsa-stained thin smears.
Compound susceptibility was measured using the malaria SYBR Green I-based fluorescence assay (32). Asynchronous P. falciparum parasites (Dd2 strain) were cultured in standard conditions before being plated for the assays. Each compound was tested over 72 hours in technical duplicates on a twelve-point concentration curve prepared by three-fold dilution from 6.7 μM to 0.11 nM. At least three independent experiments were carried out for IC50 determination. Artemisinin and chloroquine were used as controls. IC50 values were obtained using normalized fluorescence intensity from SYBR green I and analyzed via non-linear variable slope four-parameter regression curve-fitting model in Prism 6 (GraphPad Software Inc).

The next assay has as its target T1, c20S (Homo sapiens, UniProt P20618+P28074).
T1 construct: purchased Boston Biochem
Nature of the assay: Calculation of inhibition constants (inactivation kinetics), c20S. Type of assay: biochemical. On the procedure: (§1) To calculate inhibition constants, activity assays were performed as described above except using 200 μM Suc-LLVY-AMC substrate (“LLVY” disclosed as SEQ ID NO: 1). The rate of AMC release was calculated in the presence of serial dilution of each inhibitor. The rate of product formation were calculated at 30 min intervals for 4 hours, and normalized to activity DMSO control to calculate inactivation curves. Kobs values for each inhibitor concentration were calculated from inactivation curves, and inhibition constants KI and kinact were calculated by non-linear regression of Kobs and inhibitor concentration using GraphPad Prism 6 software.

A further assay has as its target Pf20S (Plasmodium falciparum, UniProt A0A5K1K7U1+Q8IJT1). Nature of the assay: Calculation of inhibition constants (inactivation kinetics), Pf20S. It is filed as biochemical. On the procedure: as §1
The target in another assay is immunoproteasome (i20S) (Homo sapiens, UniProt P20618+P28062). Nature of the assay: Selective inhibition of immunoproteasome (i20S) over constitutive proteasome (c20S). It is filed as biochemical. The settings on record: i20S compared to c20S.

In general, kinact/KI refers to the second-order rate constant of inactivation. The term kinact denotes the rate constant of inactivation at saturating inhibitor. As for `CCCCCC(=O)N[C@H](C(=O)N[C@@H](CCCC)C(=O)N[C@@H](CC(C)C)C(=O)[C@@]1(C)CO1)C(C)C` [Analog 1, (S)-2-((S)-2-hexanamido-3-methylbutanamido)-N—((S)-4-methyl-1-((R)-2-methyloxiran-2-yl)-1-oxopentan-2-yl)hexanamide], the “Selectivity Index” value with P. falciparum Dd2 stood at 33.33. The “increase in selectivity (index) compared to carmaphycin B” value with P. falciparum Dd2 was 10 fold. Besides, the kinact/KI at c20S was 1500 M⁻¹ s⁻¹; on c20S (c20S), 1500.3 M⁻¹ s⁻¹; at Pf20S (Pf20S) it was 767.7 M⁻¹ s⁻¹. Besides, the maximal inactivation rate constant (kinact) on c20S (c20S) was 0.00562 s⁻¹; on Pf20S, 0.00176 s⁻¹.
As for `CCCCCC(=O)N[C@@H](C(=O)N[C@@H](CCCC)C(=O)N[C@@H](CC(C)C)C(=O)[C@@]1(C)CO1)C(C)C` [Analog 18, (S)-2-((R)-2-hexanamido-3-methylbutanamido)-N—((S)-4-methyl-1-((R)-2-methyloxiran-2-yl)-1-oxopentan-2-yl)hexanamide], the increase in selectivity with P. falciparum Dd2 (D-amino acid at P3 in place of L-Val of analog 1, comparator not stated) is on record as 100 fold. For the same molecule, in the assay with P. falciparum Dd2, the “Selectivity Index” value is 379.20. Also, in the assay on P. falciparum Dd2, the “increase in selectivity (index) compared to carmaphycin B” value was 123 fold. The second-order inactivation constant (kinact/KI) was 15.8 M⁻¹ s⁻¹ on c20S and 158 M⁻¹ s⁻¹ at Pf20S. Also, the figures for the kinact on c20S (c20S) and on Pf20S were 0.00062 s⁻¹ and 5.88e-05 s⁻¹, respectively. Besides, the “selective inhibition of the immunoproteasome over the constitutive proteasome” value at immunoproteasome (i20S) came to 47 fold.
